The chains behind the UniProt entries cited, without tags or fusion partners.
UniProt P31424, whole entry: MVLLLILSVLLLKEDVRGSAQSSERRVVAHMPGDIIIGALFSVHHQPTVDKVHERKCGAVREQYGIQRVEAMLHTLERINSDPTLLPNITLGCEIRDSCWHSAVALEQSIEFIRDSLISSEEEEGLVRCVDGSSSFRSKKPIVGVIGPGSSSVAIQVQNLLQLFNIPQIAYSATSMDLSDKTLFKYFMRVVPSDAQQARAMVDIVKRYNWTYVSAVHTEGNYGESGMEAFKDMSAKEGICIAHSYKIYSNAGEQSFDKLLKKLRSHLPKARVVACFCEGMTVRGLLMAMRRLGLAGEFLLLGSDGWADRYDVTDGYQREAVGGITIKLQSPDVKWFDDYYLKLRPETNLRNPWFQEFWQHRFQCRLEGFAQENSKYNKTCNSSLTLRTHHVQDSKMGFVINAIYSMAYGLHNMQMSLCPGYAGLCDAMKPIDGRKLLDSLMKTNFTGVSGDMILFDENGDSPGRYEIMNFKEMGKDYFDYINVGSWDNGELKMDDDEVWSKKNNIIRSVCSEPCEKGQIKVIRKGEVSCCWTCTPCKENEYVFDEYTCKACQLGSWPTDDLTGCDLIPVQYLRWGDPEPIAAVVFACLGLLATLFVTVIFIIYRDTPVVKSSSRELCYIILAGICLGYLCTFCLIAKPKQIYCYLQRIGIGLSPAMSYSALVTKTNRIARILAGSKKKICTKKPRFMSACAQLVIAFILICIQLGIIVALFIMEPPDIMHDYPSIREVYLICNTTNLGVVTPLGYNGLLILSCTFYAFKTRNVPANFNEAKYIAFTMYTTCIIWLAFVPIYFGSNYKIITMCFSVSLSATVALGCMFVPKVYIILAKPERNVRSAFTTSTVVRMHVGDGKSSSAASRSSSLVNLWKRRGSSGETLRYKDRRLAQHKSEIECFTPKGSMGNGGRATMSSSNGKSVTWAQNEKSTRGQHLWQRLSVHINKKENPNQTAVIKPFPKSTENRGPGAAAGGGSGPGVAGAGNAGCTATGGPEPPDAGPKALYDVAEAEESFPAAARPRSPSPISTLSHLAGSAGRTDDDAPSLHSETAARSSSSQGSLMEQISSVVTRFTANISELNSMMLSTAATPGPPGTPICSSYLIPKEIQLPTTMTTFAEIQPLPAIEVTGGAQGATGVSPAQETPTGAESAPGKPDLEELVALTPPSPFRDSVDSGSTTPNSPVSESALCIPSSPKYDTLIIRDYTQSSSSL

According to ChEMBL document CHEMBL5634139, “Novel substituted 4-(Arylethynyl)-Pyrrolo[2,3-d]pyrimidines negative allosteric modulators (NAMs) of the metabotropic glutamate receptor subtype 5 (mGlu5) Treat depressive disorder in mice” (Eur J Med Chem, 2023):

Target: Metabotropic glutamate receptor 5 (Rattus norvegicus, UniProt P31424)
Test: Negative allosteric modulation of rat mGluR5 expressed in HEK293 assessed as decrease in intracellular calcium incubated for 30 mins by Fluo-6 calcium dye based FLIPR assay
Format: functional, cell-based

- IC50: 0.0208 µM
SMILES: Cc1cccc(C#Cc2ccccc2)n1
